Assay results taken from PubChem BioAssay AID819 (Columbia University Molecular Screening Center, 2007).
This is a selection; strong and weak results do not stand in their true shares. The source made the active and inactive calls.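 How the source made its calls: active means activation above 40%, about the mean plus 3 SD, also judged a hit on visual image review; inconclusive means activation above 40% but not a hit on visual review; inactive means activation not above 40% and no visual hit.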

Test: enhancers of NFkB p65 translocation in HUVEC – imaging, IL-1B stimulus, high-content imaging, primary screen (AID 819);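 further: percent activation is computed from the nuclear over cytoplasmic p65 intensity ratio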
Conditions: HUVEC IL-1B NFkB p65 nuclear translocation imaging; at 2 µM; hits give high values

| SMILES | activation |
| --- | --- |
| N#CC1(Nc2ccccc2)CCN(CCc2ccccc2)CC1 | inactive: 23.6% |
| O=C(NCC1(N2CCOCC2)CCCCC1)c1cc(=O)[nH]c2ccccc12 | inactive: -4.33% |
| CN1CCC(Nc2cccc(F)c2)CC1 | inactive: 2.11% |
| O=C(NCC1(N2CCOCC2)CCCCC1)c1cc2ccccc2o1 | inactive: -6.74% |
| O=C(OC1CN2CCC1CC2)C1c2ccccc2Oc2ccccc21 (stereo not given) | inactive: 23.4% |
| COc1ccc(NC2CCN(CCc3ccccc3)CC2)c(OC)c1 | inactive: -4.3% |
| CCOc1ncccc1C(=O)NCC1(N2CCOCC2)CCCCC1 | inactive: -12.6% |
| CCC(CO)(C(=O)OC1CN2CCC1CC2)c1ccccc1 (stereo not given) | inactive: 1.43% |
| N/C(=N\O)c1c(N)no[n+]1[O-] | inactive: 29.9% |
| c1ccc(CN2CCC(Nc3ccccc3)CC2)cc1 | inactive: -1.55% |
